scFv variants of Ab-14 (heavy chain) against a SARS-CoV-2 spike peptide

All variants were tested on one target, the spike HR2 peptide PDVDLGDISGINAS (SARS-CoV-2).

Parent scFv Ab-14: VH joined to VL by the linker GGGGSGGGGSGGGGS. Changes lie in the heavy chain CDRs alone.
VH: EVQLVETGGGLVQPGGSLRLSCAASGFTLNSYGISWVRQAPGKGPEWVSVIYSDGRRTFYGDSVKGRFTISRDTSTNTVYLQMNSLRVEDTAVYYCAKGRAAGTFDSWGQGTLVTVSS
VL: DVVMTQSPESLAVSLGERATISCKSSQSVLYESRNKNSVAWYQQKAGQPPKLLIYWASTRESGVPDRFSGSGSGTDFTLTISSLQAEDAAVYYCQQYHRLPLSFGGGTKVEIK

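Phage display of a naive human antibody library on the peptide gave the parent. The library (AAYL49) carries one to three amino acid substitutions per variant, with no insertions or deletions. AlphaSeq pools MATa yeast showing the antibodies with MATalpha yeast showing the peptide. Pairs that bind mate more often; barcode pairs of the diploids are counted by sequencing. The ratio of observed to expected reads was calibrated, replicate by replicate, on BCL2-family standards whose Kd was known from biolayer interferometry. Each pool was mated in three replicate cultures.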

Each variant is given by its three heavy chain CDRs, as the data file delimits them; those of the parent are GFTLNSYGIS, VIYSDGRRTFYGDSVK, GRAAGTFDS.
Every variant below is changed at G61 of the VH (sequential numbering).
Affinities are written as log10 Kd with Kd in nM; a lower number is a better binder.
A mean of the replicates is given; it leaves out those without a signal.
An entry "nd" has no value in the source: the pair was not observed among the diploids in any replicate. This suggests poor binding but is not conclusive.
Background: pairings of library AAYL49 with three empty control strains gave a value in 15% of cases (median 4.06, 5th percentile 2.83). Values in that range, when seen in few replicates, are hard to tell from nonspecific mating.
In this assay the parent's reference entry averaged 0.65; its copy inside this library read 4.11 (one replicate of three).

With GFTLNSYGIS / VIYSDGRRTFYEDSVQ / GRAAGTFDV the result was nd (0 of 3 replicates). With GFTLNVYGIS / VIYSDGRRTFYFDSVK / GRSAGTFDS the result was 3.82 (1 of 3 replicates). With GFTLNSYGRS / VIYSDGRRTFYSDSVK / GRAAGTFDC the result was 4.11 (1 of 3 replicates). Variant GFTHNSYGIS / VIYSDGRRTFYADSVK / GQAAGTFDS gave nd (0 of 3 replicates). For GFPLNSYGIS / VIYSDGRRTFYIDSVK / GRAAGTIDS, the assay gave 1.94 (3 of 3 replicates). For GFTLNSYGCS / VIYSDGRRTFYADSVK / GRAAGDFDS, the assay gave nd (0 of 3 replicates). Variant GFTLNANGIS / VIYSDGRRTFYRDSVK / GRAAGTFDS gave nd (0 of 3 replicates). Variant GFTLNSYGIS / VSYSDGRRTFYRASVK / GRAAGTFDS gave 5.63 (2 of 3 replicates).

With GFTLNSYGIV / VIYSDGWRTFYIDSVK / GRAAGTFDS the result was 4.79 (1 of 3 replicates). Variant GFTLNSYGIS / VIYSDVRRTFWTDSVK / GRAAGTFDS showed nd (0 of 3 replicates). Variant DFTLNSYGIS / VIYSDFRRTFYWDSVK / GRAAGTFDS showed nd (0 of 3 replicates). With AFTLNSYHIS / VIYSDGRRTFYRDSVK / GRAAGTFDS the result was nd (0 of 3 replicates). Variant GFFLVSYGIS / VIYSDGRRTFYADSVK / GRAAGTFDS gave 1.84 (3 of 3 replicates). With GFTTNSYGIS / VIYSDGRRTFYPDSVK / GRAAGTADS the result was nd (0 of 3 replicates). Variant GFTLNSYGIS / VIYSDGRRTFYYDSVK / GRAAGTMDP showed 3.50 (3 of 3 replicates). Variant GFTLNSYGIS / VIYSDGRRTFHQDSVK / GRAAGTFDS showed 2.60 (3 of 3 replicates).

Variant GVTLNSYGIS / VIYSDGRRTFDMDSVK / GRAAGTFDS gave nd (0 of 3 replicates). For GFTLNSYGAS / VIYSDNRRTFYSDSVK / GRAAGTFDS, the assay gave 3.49 (1 of 3 replicates). For GFTLNSYGIS / VIYSDGRRTFYCDSVK / GNAAGTFDS, the assay gave 1.20 (3 of 3 replicates). Variant GFTLNSYGIS / GIYSDGRRTFYVPSVK / GRAAGTFDS gave 5.31 (2 of 3 replicates). Variant GFTLNSIGIS / VIYSDGRRTFYHDSVK / GIAAGTFDS showed nd (0 of 3 replicates). For GFTLNSVGIS / TIYSDGRRTFYQDSVK / GRAAGTFDS, the assay gave nd (0 of 3 replicates). Variant GFCLDSYGIS / VIYSDGRRTFYIDSVK / GRAAGTFDS showed 2.13 (3 of 3 replicates). With GFTLWSYGIS / VIYSDGRRTFYCDSFK / GRAAGTFDS the result was nd (0 of 3 replicates).

With GFTLNQYGIS / VIYSDGRRTFYMDSVK / GRAAGTFTS the result was 0.69 (3 of 3 replicates). Variant GFELNSKGIS / VIYSDGRRTFYTDSVK / GRAAGTFDS showed 4.38 (3 of 3 replicates). Variant GFTLNSYGIS / VIASDGRRQFYTDSVK / GRAAGTFDS gave nd (0 of 3 replicates). For GFTLDSYWIS / VIYSDGRRTFYKDSVK / GRAAGTFDS, the assay gave nd (0 of 3 replicates). With VFTLNSYGIS / VIYSDGRRTFYMDSVG / GRAAGTFDS the result was nd (0 of 3 replicates). For GFTLNSYGIS / VSYSDGMRTFYIDSVK / GRAAGTFDS, the assay gave 2.59 (3 of 3 replicates). Variant GFTLNSYGIS / VIYSDGRRWFYRDSVK / GEAAGTFDS showed 4.63 (1 of 3 replicates). With GFTLNSYGIS / VIYSDQRRTFYTDSVK / GRAAGTFDQ the result was 4.75 (3 of 3 replicates).

Variant GFTLNDYGIF / VIYSDGRRTFYRDSVK / GRAAGTFDS showed nd (0 of 3 replicates).

Top 4 of the variants detected in all replicates, tightest first:

| CDR-H1 | CDR-H2 | CDR-H3 | mean log10 Kd (nM) | seen in |
|---|---|---|---|---|
| GFTLNQYGIS | VIYSDGRRTFYMDSVK | GRAAGTFTS | 0.69 | 3/3 |
| GFTLNSYGIS | VIYSDGRRTFYCDSVK | GNAAGTFDS | 1.20 | 3/3 |
| GFFLVSYGIS | VIYSDGRRTFYADSVK | GRAAGTFDS | 1.84 | 3/3 |
| GFPLNSYGIS | VIYSDGRRTFYIDSVK | GRAAGTIDS | 1.94 | 3/3 |

The measurements come from Engelhart et al. 2022 (doi:10.1038/s41597-022-01779-4) through the FLAb antibody collection.